In ChEMBL document CHEMBL4428107, “Synthesis and biological evaluation of santacruzamate A analogues for anti-proliferative and immunomodulatory activity” (Bioorg Med Chem, 2016) one finds inhibition data, which are given here for two compounds.

The chains behind the UniProt entries cited, without tags or fusion partners. Where a name states a change or a piece, a line headed by the entry shows the natural chain unless it says otherwise.
UniProt Q9UQL6: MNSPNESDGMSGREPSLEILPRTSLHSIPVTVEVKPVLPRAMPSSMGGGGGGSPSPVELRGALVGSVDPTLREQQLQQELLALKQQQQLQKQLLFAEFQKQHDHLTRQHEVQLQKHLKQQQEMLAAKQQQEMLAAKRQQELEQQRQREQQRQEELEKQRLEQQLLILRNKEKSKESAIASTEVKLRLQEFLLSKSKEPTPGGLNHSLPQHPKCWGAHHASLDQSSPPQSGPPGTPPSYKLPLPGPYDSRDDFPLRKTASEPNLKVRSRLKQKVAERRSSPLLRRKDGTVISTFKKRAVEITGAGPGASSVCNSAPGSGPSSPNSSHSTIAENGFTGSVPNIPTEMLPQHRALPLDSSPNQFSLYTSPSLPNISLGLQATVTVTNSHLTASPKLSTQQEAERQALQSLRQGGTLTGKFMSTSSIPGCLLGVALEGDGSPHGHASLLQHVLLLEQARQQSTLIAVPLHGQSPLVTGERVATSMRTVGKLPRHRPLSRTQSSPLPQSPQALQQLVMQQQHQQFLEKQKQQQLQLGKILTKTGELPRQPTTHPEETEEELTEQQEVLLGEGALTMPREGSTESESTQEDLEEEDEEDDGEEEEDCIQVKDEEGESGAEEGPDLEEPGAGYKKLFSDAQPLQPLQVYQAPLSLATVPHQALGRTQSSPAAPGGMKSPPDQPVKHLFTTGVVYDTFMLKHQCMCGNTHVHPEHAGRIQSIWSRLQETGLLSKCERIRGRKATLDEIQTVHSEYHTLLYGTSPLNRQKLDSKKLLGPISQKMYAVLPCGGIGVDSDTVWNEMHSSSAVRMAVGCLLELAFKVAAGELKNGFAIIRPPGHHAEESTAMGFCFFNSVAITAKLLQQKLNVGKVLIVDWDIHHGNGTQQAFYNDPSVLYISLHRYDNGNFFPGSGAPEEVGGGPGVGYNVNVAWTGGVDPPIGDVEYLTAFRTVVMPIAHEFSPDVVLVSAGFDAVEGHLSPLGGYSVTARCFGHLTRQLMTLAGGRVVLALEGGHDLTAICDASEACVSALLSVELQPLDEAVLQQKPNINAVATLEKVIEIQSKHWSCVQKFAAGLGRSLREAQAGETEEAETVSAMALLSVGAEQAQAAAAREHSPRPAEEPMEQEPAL
UniProt Q13547, whole entry: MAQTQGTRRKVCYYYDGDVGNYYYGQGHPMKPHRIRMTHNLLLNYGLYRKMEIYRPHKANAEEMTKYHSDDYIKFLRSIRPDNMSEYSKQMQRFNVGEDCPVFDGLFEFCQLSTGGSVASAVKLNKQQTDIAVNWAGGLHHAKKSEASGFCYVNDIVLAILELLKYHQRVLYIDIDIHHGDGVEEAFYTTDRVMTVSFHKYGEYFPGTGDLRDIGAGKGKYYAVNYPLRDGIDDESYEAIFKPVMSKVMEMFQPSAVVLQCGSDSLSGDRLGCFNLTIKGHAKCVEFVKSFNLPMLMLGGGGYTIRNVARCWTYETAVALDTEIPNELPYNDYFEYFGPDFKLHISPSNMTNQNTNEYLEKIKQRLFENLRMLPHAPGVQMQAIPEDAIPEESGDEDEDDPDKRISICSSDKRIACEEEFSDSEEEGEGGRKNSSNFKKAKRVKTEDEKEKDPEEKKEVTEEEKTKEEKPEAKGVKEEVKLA
UniProt O15379: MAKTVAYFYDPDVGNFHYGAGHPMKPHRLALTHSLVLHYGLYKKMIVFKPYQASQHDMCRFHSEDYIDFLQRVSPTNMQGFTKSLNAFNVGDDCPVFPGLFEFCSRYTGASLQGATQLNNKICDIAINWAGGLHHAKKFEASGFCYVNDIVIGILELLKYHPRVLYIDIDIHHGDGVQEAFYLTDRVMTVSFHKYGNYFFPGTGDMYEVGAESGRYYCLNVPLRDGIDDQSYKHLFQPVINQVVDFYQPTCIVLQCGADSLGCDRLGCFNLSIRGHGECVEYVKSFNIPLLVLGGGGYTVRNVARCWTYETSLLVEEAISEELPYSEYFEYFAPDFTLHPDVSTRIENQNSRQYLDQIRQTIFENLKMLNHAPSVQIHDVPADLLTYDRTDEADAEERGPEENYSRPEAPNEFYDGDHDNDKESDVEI
UniProt Q92769, whole entry: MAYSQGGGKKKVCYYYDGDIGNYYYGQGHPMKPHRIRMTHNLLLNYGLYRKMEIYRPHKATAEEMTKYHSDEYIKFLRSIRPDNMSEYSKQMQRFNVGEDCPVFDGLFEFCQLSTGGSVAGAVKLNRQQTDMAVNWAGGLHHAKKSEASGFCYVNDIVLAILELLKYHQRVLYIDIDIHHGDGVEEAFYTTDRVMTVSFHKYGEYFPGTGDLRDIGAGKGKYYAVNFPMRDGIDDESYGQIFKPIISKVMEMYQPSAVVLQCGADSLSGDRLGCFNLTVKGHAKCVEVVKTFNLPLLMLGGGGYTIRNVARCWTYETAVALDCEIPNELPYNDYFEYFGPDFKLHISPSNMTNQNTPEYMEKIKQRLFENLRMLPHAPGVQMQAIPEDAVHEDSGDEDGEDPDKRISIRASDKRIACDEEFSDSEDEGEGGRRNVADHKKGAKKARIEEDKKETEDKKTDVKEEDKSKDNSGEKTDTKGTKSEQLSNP
UniProt Q9UKV0: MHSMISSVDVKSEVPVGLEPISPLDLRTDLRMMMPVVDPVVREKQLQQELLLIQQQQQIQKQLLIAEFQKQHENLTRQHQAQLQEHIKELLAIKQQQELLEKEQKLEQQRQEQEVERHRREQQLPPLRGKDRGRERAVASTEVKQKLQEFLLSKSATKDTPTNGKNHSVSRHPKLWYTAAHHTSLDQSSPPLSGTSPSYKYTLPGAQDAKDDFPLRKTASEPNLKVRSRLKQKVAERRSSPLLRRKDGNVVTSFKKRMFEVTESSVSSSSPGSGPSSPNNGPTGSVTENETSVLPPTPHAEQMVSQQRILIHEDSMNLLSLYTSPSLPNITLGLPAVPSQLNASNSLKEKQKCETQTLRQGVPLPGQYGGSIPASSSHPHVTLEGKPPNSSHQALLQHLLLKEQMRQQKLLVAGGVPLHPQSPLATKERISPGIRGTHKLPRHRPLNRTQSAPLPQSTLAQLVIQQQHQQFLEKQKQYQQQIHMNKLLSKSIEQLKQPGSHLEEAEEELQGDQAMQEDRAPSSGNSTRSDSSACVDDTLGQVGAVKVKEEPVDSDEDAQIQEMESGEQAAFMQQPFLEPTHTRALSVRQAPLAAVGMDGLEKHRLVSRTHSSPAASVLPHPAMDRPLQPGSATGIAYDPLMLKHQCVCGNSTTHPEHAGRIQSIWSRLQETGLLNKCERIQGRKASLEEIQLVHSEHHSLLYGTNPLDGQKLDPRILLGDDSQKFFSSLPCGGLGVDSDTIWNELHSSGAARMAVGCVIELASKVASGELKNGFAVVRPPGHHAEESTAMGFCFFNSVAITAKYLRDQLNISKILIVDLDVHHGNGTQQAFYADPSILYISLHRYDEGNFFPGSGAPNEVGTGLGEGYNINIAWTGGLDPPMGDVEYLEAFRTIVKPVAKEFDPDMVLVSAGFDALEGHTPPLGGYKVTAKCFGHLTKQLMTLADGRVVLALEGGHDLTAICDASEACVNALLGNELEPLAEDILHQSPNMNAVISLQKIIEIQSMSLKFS
UniProt Q9Y618: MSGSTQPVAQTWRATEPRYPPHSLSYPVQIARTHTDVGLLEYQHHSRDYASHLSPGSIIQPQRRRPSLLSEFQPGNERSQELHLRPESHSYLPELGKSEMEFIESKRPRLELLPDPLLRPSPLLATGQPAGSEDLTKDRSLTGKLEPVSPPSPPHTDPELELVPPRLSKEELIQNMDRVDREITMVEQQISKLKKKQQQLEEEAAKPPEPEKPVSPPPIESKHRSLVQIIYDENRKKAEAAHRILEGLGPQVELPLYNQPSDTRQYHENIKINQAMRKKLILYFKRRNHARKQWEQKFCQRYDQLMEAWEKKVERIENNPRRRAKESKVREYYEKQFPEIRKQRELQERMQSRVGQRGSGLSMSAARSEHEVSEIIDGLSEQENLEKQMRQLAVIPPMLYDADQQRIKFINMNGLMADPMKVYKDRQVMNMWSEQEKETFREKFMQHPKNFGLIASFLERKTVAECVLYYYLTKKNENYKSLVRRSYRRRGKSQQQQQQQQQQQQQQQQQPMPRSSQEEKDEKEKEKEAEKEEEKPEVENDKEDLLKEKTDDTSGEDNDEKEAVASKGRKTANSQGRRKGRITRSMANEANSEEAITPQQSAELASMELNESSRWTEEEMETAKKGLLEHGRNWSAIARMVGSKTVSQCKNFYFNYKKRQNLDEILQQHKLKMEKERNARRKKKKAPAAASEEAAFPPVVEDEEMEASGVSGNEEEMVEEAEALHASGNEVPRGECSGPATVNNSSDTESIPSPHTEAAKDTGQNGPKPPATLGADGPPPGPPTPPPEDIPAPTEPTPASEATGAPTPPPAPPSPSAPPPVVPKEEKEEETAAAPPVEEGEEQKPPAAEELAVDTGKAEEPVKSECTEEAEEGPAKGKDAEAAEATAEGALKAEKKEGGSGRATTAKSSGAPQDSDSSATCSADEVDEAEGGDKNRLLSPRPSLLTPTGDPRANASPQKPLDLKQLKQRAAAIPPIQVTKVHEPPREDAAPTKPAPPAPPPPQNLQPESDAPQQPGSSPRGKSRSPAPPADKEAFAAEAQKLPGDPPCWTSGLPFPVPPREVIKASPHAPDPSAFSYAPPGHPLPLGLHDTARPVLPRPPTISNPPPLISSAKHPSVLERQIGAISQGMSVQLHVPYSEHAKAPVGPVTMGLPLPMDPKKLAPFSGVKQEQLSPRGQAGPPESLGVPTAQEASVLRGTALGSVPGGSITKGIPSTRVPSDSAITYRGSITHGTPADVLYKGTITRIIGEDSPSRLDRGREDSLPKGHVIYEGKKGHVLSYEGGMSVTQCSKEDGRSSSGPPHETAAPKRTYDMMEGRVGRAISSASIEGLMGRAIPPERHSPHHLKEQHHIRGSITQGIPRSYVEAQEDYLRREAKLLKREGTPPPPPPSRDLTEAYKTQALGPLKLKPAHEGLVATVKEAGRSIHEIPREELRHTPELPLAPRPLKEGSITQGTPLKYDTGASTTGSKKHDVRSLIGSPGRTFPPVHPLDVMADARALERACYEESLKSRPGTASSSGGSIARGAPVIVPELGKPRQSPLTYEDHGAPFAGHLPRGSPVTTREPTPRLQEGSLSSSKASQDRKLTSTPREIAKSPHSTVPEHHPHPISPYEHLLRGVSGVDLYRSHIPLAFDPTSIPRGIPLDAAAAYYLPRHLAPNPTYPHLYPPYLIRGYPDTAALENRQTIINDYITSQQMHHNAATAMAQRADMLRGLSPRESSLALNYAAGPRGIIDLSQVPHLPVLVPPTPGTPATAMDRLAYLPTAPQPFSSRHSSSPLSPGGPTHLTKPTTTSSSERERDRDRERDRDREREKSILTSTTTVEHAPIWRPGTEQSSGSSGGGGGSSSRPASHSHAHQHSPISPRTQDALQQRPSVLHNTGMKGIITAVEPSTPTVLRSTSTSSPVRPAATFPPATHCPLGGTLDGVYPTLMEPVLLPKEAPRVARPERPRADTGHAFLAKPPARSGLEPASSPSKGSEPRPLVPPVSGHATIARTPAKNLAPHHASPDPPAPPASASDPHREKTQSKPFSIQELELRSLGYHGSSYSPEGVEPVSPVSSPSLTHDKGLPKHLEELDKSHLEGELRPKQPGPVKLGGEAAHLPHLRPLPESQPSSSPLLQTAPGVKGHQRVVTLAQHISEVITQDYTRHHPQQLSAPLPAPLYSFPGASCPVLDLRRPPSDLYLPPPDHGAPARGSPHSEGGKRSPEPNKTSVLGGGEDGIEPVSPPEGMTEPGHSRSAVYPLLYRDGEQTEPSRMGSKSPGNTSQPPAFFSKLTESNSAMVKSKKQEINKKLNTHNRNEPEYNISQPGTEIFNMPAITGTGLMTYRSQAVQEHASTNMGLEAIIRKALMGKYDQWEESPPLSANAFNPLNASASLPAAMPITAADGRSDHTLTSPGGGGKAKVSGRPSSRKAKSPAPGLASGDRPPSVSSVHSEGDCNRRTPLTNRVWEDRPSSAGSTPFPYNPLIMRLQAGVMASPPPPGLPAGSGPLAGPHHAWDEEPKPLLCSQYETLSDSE

Activity calls are given as the source filed them. No cut-off for these calls is given here.

The target of assay [1] is T1, Histone deacetylase 5 (Homo sapiens, UniProt Q9UQL6). As to conditions: 10 uM.
In assay [2] the target is T2, Histone deacetylase (Homo sapiens) (UniProt Q13547+O15379+Q9UBN7+Q92769+Q9UQL6+Q8WUI4+Q9BY41+Q96DB2+P56524+Q9UKV0+Q969S8). The following applies: 200 uM.
For assay [3], the target named is T3, Histone deacetylase 4 (Homo sapiens, UniProt P56524). As to conditions: 5 uM.
The target in assay [4] is T4, Histone deacetylase 8 (Homo sapiens) (UniProt Q9BY41).
T4 sequence (whole entry): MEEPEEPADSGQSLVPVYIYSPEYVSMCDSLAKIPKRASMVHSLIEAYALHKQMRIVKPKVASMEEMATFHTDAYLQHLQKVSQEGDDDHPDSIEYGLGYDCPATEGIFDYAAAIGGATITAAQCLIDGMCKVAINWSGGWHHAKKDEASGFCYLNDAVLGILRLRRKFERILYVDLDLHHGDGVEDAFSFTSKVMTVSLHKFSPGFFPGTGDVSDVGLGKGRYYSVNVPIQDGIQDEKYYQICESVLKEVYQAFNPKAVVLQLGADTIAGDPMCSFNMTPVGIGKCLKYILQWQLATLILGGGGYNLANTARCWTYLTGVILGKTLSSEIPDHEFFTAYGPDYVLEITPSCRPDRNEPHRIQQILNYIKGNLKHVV
The following applies: 5 uM.

For assay [5], the target named is T4, Histone deacetylase 8 (Homo sapiens). The following applies: 10 uM.
Assay [6] has as its target T5, Histone deacetylase 9 (Homo sapiens, UniProt Q9UKV0). The following applies: 5 uM.
The next assay deals with Histone deacetylase 2 (Homo sapiens, UniProt Q92769). The following applies: 5 uM.
Assay [7] has as its target T6, Histone deacetylase 7 (Homo sapiens) (UniProt Q8WUI4).
T6 sequence (whole entry): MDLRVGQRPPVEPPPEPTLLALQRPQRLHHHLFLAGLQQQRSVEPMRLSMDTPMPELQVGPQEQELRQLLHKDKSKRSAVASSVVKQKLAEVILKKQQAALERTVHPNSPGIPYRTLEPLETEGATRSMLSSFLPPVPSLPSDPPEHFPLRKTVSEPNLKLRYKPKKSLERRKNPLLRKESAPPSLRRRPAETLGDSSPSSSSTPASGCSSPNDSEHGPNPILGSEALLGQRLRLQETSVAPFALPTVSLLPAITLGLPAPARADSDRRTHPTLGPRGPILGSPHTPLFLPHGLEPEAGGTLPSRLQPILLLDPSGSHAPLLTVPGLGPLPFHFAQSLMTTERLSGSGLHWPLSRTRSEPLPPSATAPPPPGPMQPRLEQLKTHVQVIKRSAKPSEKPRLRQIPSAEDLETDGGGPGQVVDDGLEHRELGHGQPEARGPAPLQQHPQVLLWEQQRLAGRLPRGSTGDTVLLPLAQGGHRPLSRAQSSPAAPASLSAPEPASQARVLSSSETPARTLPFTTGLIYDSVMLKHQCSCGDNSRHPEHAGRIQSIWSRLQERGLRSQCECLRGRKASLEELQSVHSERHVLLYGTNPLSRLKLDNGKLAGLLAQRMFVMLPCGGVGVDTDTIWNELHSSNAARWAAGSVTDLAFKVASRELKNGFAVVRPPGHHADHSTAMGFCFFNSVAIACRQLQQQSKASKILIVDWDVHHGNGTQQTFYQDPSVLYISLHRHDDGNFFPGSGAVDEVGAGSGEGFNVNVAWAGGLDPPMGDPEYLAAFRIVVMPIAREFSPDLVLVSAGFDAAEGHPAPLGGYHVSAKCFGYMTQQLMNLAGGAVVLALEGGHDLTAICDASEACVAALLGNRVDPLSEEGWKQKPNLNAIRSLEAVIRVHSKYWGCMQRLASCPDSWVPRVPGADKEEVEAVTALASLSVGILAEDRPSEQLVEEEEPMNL
As to conditions: 5 uM.

Assay [8] addresses T7, Histone deacetylase 11 (Homo sapiens) (UniProt Q96DB2).
T7 sequence (whole entry): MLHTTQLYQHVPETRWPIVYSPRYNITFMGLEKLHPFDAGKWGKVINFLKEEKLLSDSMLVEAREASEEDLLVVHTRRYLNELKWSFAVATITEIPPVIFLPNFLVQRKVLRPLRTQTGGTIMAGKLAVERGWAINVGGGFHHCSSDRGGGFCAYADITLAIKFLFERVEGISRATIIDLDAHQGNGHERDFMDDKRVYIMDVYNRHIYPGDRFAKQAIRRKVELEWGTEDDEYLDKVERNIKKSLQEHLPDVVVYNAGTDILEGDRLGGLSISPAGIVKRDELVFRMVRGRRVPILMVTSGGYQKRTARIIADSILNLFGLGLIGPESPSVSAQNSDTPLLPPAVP
The following applies: 10 uM.

Assay [9] concerns the target Histone deacetylase 3/Nuclear receptor corepressor 2 (HDAC3/NCoR2) (Homo sapiens) (UniProt O15379+Q9Y618). As to conditions: 5 uM.
Assay [10] has as its target T8, Polyamine deacetylase HDAC10 (Homo sapiens) (UniProt Q969S8).
T8 sequence (whole entry): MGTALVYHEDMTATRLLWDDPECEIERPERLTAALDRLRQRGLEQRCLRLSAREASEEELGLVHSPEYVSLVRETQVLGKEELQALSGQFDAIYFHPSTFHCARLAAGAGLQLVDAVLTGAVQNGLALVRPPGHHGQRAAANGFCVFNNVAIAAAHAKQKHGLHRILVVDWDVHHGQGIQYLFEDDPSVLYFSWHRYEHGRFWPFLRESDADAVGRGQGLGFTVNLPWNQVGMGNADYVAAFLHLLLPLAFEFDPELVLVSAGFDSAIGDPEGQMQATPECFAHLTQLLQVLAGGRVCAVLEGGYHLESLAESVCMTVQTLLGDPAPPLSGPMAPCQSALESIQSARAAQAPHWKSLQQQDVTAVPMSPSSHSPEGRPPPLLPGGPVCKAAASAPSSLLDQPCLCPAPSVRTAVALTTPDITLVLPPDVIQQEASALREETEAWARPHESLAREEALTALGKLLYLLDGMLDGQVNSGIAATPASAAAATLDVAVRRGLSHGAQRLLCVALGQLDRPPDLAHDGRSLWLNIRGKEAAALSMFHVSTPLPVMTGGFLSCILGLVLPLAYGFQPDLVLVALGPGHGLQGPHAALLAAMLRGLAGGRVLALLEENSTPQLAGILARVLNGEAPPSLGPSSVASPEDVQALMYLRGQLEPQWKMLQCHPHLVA
As to conditions: 5 uM.

The target in assay [11] is T3, Histone deacetylase 4. As to conditions: 10 uM.
Assay [12] concerns the target T2, Histone deacetylase (Homo sapiens). The following applies: 200 uM. This is another data set of the same source.
In assay [13] the target is T1, Histone deacetylase 5. As to conditions: 5 uM.
Assay [14] concerns the target T7, Histone deacetylase 11 (Homo sapiens). The following applies: 5 uM.
Assay [15] addresses T9, Protein deacetylase HDAC6 (Homo sapiens) (UniProt Q9UBN7).
T9 sequence (whole entry): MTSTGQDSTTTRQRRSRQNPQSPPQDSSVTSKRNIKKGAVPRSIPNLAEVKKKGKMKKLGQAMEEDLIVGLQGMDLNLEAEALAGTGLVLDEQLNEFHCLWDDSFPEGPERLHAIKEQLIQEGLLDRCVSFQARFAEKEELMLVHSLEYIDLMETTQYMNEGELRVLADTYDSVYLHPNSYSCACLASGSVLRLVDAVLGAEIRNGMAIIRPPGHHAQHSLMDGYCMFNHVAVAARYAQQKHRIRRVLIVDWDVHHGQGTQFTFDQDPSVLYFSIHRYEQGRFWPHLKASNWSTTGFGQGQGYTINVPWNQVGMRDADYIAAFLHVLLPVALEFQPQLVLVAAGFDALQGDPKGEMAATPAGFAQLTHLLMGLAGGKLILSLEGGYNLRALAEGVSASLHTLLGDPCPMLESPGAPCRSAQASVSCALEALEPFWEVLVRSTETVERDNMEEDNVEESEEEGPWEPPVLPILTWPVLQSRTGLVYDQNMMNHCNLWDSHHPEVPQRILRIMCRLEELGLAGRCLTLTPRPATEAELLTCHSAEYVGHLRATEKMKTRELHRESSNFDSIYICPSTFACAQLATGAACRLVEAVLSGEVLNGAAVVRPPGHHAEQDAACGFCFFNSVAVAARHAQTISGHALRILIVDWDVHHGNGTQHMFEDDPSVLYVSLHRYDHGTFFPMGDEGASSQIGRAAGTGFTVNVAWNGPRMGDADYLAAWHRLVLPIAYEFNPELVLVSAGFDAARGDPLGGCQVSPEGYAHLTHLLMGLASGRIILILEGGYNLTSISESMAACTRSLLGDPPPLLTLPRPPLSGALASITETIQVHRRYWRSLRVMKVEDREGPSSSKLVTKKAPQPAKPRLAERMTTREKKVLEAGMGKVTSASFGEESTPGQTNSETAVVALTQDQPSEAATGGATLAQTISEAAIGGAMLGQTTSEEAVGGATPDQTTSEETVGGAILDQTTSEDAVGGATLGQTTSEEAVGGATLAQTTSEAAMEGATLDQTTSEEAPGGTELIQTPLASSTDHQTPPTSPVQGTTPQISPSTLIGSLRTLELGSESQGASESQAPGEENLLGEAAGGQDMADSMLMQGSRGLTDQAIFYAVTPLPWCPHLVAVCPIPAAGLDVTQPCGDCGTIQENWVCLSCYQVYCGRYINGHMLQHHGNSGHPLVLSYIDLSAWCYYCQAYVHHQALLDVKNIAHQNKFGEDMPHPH
The following applies: 5 uM.

The next assay addresses Histone deacetylase 1 (Homo sapiens, UniProt Q13547). As to conditions: 5 uM.
Assay [16] has as its target T6, Histone deacetylase 7 (Homo sapiens). The following applies: 10 uM.
Assay [17] has as its target T2, Histone deacetylase (Homo sapiens). As to conditions: 200 uM. The source holds these as a separate data set.
The target in assay [18] is T5, Histone deacetylase 9. The following applies: 10 uM.

Take `CCOC(=O)NCCCC(=O)NCCc1ccccc1`: the inhibition was determined as 66% on Histone deacetylase 5 [1]; 4% against Histone deacetylase 4 [3]; 5% in assay [4]; 73% in [5]; 10% at Histone deacetylase 9 [6]; 6% against Histone deacetylase 2. For the same compound, the inhibition was determined as 0% in [7]; 78% in assay [8]; 10% in assay [9]; 16% in assay [10]; 86% on Histone deacetylase 4 [11]; 0% at Histone deacetylase 5 [13]. Also, the inhibition in assay [14] came to 0%; in assay [15], 16%; against Histone deacetylase 1, 7%; in assay [16], 74%; against Histone deacetylase 9 [18] it was 75%. For the same compound, the inhibition entry in assay [2], in assay [12] and in assay [17] was “inactive” throughout.

Consider `O=C(CCCC(=O)NCCc1ccccc1)NO`, for which the inhibition against Histone deacetylase 5 [1] was determined as 49%; on Histone deacetylase 4 [3], 6%; in assay [4] it was 0%; in assay [5] it was 70%; against Histone deacetylase 9 [6], 14%; at Histone deacetylase 2, 17%. Besides, the inhibition stood at 29% in [7]; 72% in [8]; 36% in [9]; 35% in assay [10]; 80% at Histone deacetylase 4 [11]; 0% on Histone deacetylase 5 [13]. The inhibition in [14] was determined as 24%; in assay [15], 59%; at Histone deacetylase 1 it was 31%; in assay [16] it was 47%; against Histone deacetylase 9 [18], 70%.
